Where a name gives a salt, the structure may show the parent alone.
Columns and labels:
[1] = test system: CHCl3-adrenalin-model arrhythmia; format: in vivo, dog; conditions: vs propafenone
Method: The antiarrhythmic effect of the compound of formula I was tested in dogs according to the method of Hapke and Prigge, Arzneim.-Forsch. (Drug Res.), loc. cit. A model arrhythmia which was essentially characterized by ventricular extrasystoles at absolute arrhythmia was produced by infusion of chloroform and adrenalin (epinephrine). At the onset of these rhythm disorders the inventive compound was injected intravenously as aqueous solution of the hydrochloride.
. […] (Drug Res.), loc. cit.

[2] = in vivo; conditions: rat
[3] = test system: circulation parameters; test: Circulation parameters in dogs (method of Hapke and Prigge); conditions: vs propafenone

Compound | antiarrhythmic dose relative to necessary dose of propafenone ([1]; intravenous) | effect in heart rhythm disorders relative to propafenone [1] | LD50 ([2]; iv) | LD50 ([2]; po) | hemodynamic activity relative to propafenone [3]
CCC(C)(C)NCC(O)COc1ccccc1C(=O)CCc1ccccc1 (stereo not drawn) [diprafenone, 2-[2'-hydroxy-3'-(1,1-dimethylpropylamino)-propoxy]-β-phenylpropiophenone] | twentieth part |  |  |  | 
CCC(C)(C)NCC(O)COc1ccccc1C(=O)CCc1ccccc1 (stereo not drawn) [diprafenone-HCl, 2-[2'-hydroxy-3'-(1,1-dimethylpropylamino)-propoxy]-β-phenylpropiophenone-hydrochloride] |  | approximately 20 times | 16.9 mg/kg | 1080 mg/kg | approximately the same hemodynamic activity
